Patent US10144715B2, “Piperazine derivatives as liver X receptor modulators” (priority 2014, dated 2018)
Read-outs that look alike come from different tables or passages of the source.

Protein sequences, listed by entry. Tags and fused reporters are not part of them. Residues count along the entry.
UniProt P55055, 222-460 limits assumed: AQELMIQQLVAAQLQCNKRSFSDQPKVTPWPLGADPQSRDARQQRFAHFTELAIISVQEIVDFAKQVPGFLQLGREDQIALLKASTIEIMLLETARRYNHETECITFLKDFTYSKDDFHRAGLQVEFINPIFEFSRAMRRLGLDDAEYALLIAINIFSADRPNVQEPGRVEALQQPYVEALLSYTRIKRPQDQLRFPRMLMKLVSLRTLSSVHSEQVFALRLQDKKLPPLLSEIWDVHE
UniProt Q13133, 209-447: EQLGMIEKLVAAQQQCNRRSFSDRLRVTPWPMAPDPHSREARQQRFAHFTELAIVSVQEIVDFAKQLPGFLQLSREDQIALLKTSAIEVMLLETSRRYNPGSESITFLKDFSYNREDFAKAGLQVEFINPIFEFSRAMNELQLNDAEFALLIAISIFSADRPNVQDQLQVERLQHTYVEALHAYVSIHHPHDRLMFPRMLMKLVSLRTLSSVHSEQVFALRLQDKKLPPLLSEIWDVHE

Columns and labels:
[1] = biological target: Gal4 DNA binding domain fused to the LBD of LXRβ in HEK293 cells (Homo sapiens (Human), UniProt P55055); experiment: cell-based; conditions: for Cell LXRβ efficacy: agonist mode
[2] = biological target: LXR β LBD protein (Homo sapiens (Human), UniProt P55055); experiment: biochemical; format: biochemical
[3] = biological target: LXR α LBD protein (Homo sapiens (Human), UniProt Q13133); experiment: Human LXRα coactivator recruitment FRET assay, agonist mode; format: biochemical
[4] = agonist mode, read-out: FRET LXRβ EC50

Row | Compound | EC50 [1] [nM] | FRET LXRβ efficacy ([2]; Biological Test Example 3, agonist mode) [%] | EC50 ([2]; Biological Test Example 3, agonist mode, read-out: FRET LXRβ EC50) [nM] | FRET LXRβ efficacy ([2]; agonist mode) [%] | EC50 [2, 4] [nM] | Cell LXRβ efficacy [1] [%] | EC50 [2] [nM] | EC50 [3] [nM]
1 | CS(=O)(=O)c1cccc(N2CCN(CC3CCN(CC(F)(F)F)CC3)[C@H](c3ccccc3)C2)c1 (single isomer, unassigned) [48-51] | > 20000 | 65 | 4850 | – | – | – | – | –
2 | CC(C)(C)OC(=O)N1CCN(c2cccc(S(C)(=O)=O)c2)C[C@@H]1c1ccccc1 [1-6, tert-butyl (S)-4-(3-(methylsulfonyl)phenyl)-2-phenylpiperazine-1-carboxylate] | > 20000 | – | – | 25 | 12500 | – | – | –
3 | CC(C)(C)OC(=O)N1CCN(c2cccc(S(C)(=O)=O)c2)CC1c1ccc(Br)cc1 (stereo not shown) [1-12, tert-butyl 2-(4-bromophenyl)-4-(3-(methylsulfonyl)phenyl)piperazine-1-carboxylate] | 948 | – | – | 72 | – | 37 | – | –
4 | CC(C)[C@@H]1CN(c2ccc(C(N)=O)c(S(C)(=O)=O)c2)CCN1C(=O)OC(C)(C)C [4-1, tert-butyl (R)-4-(4-carbamoyl-3-(methylsulfonyl)phenyl)-2-isopropylpiperazine-1-carboxylate] | 3010 | – | – | 90 | 2410 | 20 | – | –
5 | CC(C)OC(=O)N1CCN(c2cccc(S(C)(=O)=O)c2)CC1c1ccccc1 (stereo not shown) [5-8, isopropyl 4-(3-(methylsulfonyl)phenyl)-2-phenylpiperazine-1-carboxylate] | > 20000 | – | – | 24 | 732 | – | – | –
6 | CC(C)(C)OC(=O)N1CCN(c2cccc(S(C)(=O)=O)c2)C[C@H]1C(C)(C)O [6-1, tert-butyl (S)-2-(2-hydroxypropan-2-yl)-4-(3-(methylsulfonyl)phenyl)piperazine-1-carboxylate] | 4340 | – | – | 78 | 2650 | 40 | – | –
7 | COC(=O)c1cnc(N2CCN(c3cccc(S(C)(=O)=O)c3)C[C@H]2C(C)C)nc1 [7-9, methyl (R)-2-(2-isopropyl-4-(3-(methylsulfonyl)phenyl)piperazin-1-yl)pyrimidine-5-carboxylate] | 640 | – | – | 81 | 56 | 24 | – | –
8 | CC(C)[C@@H]1CN(c2cccc(S(C)(=O)=O)c2)CCN1c1ncc(Br)cn1 [7-16, (R)-5-bromo-2-(2-isopropyl-4-(3-(methylsulfonyl)phenyl)piperazin-1-yl)pyrimidine] | 295 | – | – | 92 | 16 | 62 | – | –
9 | CC(C)[C@@H]1CN(c2ccc(C#N)c(S(C)(=O)=O)c2)CCN1c1ccc(C(F)(F)F)cn1 [7-37, (R)-4-(3-isopropyl-4-(5-(trifluoromethyl)pyridin-2-yl)piperazin-1-yl)-2-(methylsulfonyl)benzonitrile] | 517 | – | – | 89 | 16 | 86 | – | –
10 | CC(C)[C@@H]1CN(c2ccc(C#N)c(S(C)(=O)=O)c2)CCN1c1cccc(C(F)(F)F)n1 [7-38, (R)-4-(3-isopropyl-4-(6-(trifluoromethyl)pyridin-2-yl)piperazin-1-yl)-2-(methylsulfonyl)benzonitrile] | 573 | – | – | 109 | 43 | 70 | – | –
11 | CC(C)[C@@H]1CN(c2ccc(C#N)c(S(C)(=O)=O)c2)CCN1c1cc(C(F)(F)F)ccn1 [7-39, (R)-4-(3-isopropyl-4-(4-(trifluoromethyl)pyridin-2-yl)piperazin-1-yl)-2-(methylsulfonyl)benzonitrile] | 544 | – | – | 115 | 25 | 64 | – | –
12 | CS(=O)(=O)c1cccc(N2CCN(c3ccc(C(F)(F)F)cn3)[C@@H](c3ccccc3)C2)c1 [7-40, (S)-4-(3-(methylsulfonyl)phenyl)-2-phenyl-1-(5-(trifluoromethyl)pyridin-2-yl)piperazine] | > 20000 | – | – | 48 | 4360 | – | – | –
13 | CS(=O)(=O)c1cccc(N2CCN(Cc3ccccc3)C(c3ccccc3)C2)c1 (stereo not shown) [46-4, 1-benzyl-4-(3-(methylsulfonyl)phenyl)-2-phenylpiperazine] | > 20000 | – | – | – | > 50000 | – | – | –
14 | CS(=O)(=O)c1cccc(N2CCN(Cc3ccccc3C(F)(F)F)C(c3ccccc3)C2)c1 (stereo not shown) [46-12, 4-(3-(methylsulfonyl)phenyl)-2-phenyl-1-(2-(trifluoromethyl)benzyl)piperazine] | > 20000 | – | – | – | > 50000 | – | – | –
15 | CS(=O)(=O)c1cccc(N2CCN(Cc3cccc(C(F)(F)F)c3)C(c3ccccc3)C2)c1 (stereo not shown) [46-13, 4-(3-(methylsulfonyl)phenyl)-2-phenyl-1-(3-(trifluoromethyl)benzyl)piperazine] | > 20000 | – | – | 21 | 547 | – | – | –
16 | CS(=O)(=O)c1cccc(N2CCN(Cc3ccc(C(F)(F)F)c(Cl)c3)[C@H](Cc3ccccc3)C2)c1 [46-33, (R)-2-benzyl-1-(3-chloro-4-(trifluoromethyl)benzyl)-4-(3-(methylsulfonyl)phenyl)piperazine] | 1680 | – | – | 54 | – | 36 | 649 | –
17 | CS(=O)(=O)c1cccc(N2CCN(Cc3cccnc3)C(c3ccccc3)C2)c1 (stereo not shown) [46-39, 4-(3-(methylsulfonyl)phenyl)-2-phenyl-1-(pyridin-3-ylmethyl)piperazine] | > 20000 | – | – | – | > 50000 | – | – | –
18 | Cc1ccc(CN2CCN(c3cccc(S(C)(=O)=O)c3)CC2c2ccccc2)cn1 (stereo not shown) [46-40, 1-((6-methylpyridin-3-yl)methyl)-4-(3-(methylsulfonyl)phenyl)-2-phenylpiperazine] | > 20000 | – | – | 23 | 17700 | – | – | –
19 | CS(=O)(=O)c1cccc(N2CCN(Cc3ccc(C(F)(F)F)nc3)C(c3ccc(F)cc3)C2)c1 (stereo not shown) [46-51, 2-(4-fluorophenyl)-4-(3-(methylsulfonyl)phenyl)-1-((6-(trifluoromethyl)pyridin-3-yl)methyl)piperazine] | 1310 | – | – | 51 | 450 | 28 | – | –
20 | CS(=O)(=O)c1cc(N2CCN(Cc3ccc(C(F)(F)F)nc3)C(c3ccccc3)C2)ccc1F (stereo not shown) [46-52, 4-(4-fluoro-3-(methylsulfonyl)phenyl)-2-phenyl-1-((6-(trifluoromethyl)pyridin-3-yl)methyl)piperazine] | 2110 | – | – | 42 | 1230 | 20 | – | –
21 | CS(=O)(=O)c1cc(N2CCN(Cc3ccc(C(F)(F)F)nc3)C(c3ccccc3)C2)ccc1C(N)=O (stereo not shown) [46-58, 2-(methylsulfonyl)-4-(3-phenyl-4-((6-(trifluoromethyl)pyridin-3-yl)methyl)piperazin-1-yl)benzamide] | 3440 | – | – | 36 | 2770 | 15 | – | –
22 | CS(=O)(=O)c1cccc(N2CCN(Cc3ccc(C(F)(F)F)nc3)C(c3ccccc3Br)C2)c1 (stereo not shown) [46-60, 2-(2-bromophenyl)-4-(3-(methylsulfonyl)phenyl)-1-((6-(trifluoromethyl)pyridin-3-yl)methyl)piperazine] | 1270 | – | – | 74 | – | 25 | – | –
23 | CS(=O)(=O)c1cccc(N2CCN(Cc3ccc(C(F)(F)F)nc3)C(c3ccc(Br)cc3)C2)c1 (stereo not shown) [46-61, 2-(4-bromophenyl)-4-(3-(methylsulfonyl)phenyl)-1-((6-(trifluoromethyl)pyridin-3-yl)methyl)piperazine] | > 20000 | – | – | 44 | – | – | – | –
24 | CS(=O)(=O)c1cccc(N2CCN(Cc3ccc(C(F)(F)F)o3)[C@H](c3ccccc3)C2)c1 [46-65, (R)-4-(3-(methylsulfonyl)phenyl)-2-phenyl-1-((5-(trifluoromethyl)furan-2-yl)methyl)piperazine] | – | – | – | – | – | – | – | > 50000
25 | CS(=O)(=O)c1cc(N2CCN(Cc3ccc(C(F)(F)F)c(Cl)c3)C(c3ccccc3)C2)ccc1CO (stereo not shown) [47-4, (4-(4-(3-chloro-4-(trifluoromethyl)benzyl)-3-phenylpiperazin-1-yl)-2-(methylsulfonyl)phenyl)methanol] | 515 | – | – | 91 | 22 | 98 | – | –
26 | CC(C)C1CN(c2ccc(C#N)c(S(C)(=O)=O)c2)CCN1CC1CCC(C(F)(F)F)CC1 [50-2, 4-((S)-3-isopropyl-4-(((1r,4S)-4-(trifluoromethyl)cyclohexyl)methyl)piperazin-1-yl)-2-(methylsulfonyl)benzonitrile] | 542 | – | – | – | – | – | – | –
27 | CC(C)[C@@H]1CN(c2ccc(C#N)c(S(C)(=O)=O)c2)CCN1C(=O)OC(C)(C)C [Cpd No 3-1, tert-butyl (R)-4-(4-cyano-3-(methylsulfonyl)phenyl)-2-isopropylpiperazine-1-carboxylate] | 2310 | – | – | 75 | 618 | 20 | – | –
28 | Cc1cc(C)nc(N2CCN(c3cccc(S(C)(=O)=O)c3)C[C@H]2C(C)C)n1 [Cpd No 7-3, (R)-2-(2-isopropyl-4-(3-(methylsulfonyl)phenyl)piperazin-1-yl)-4,6-dimethylpyrimidine] | 1130 | – | – | 51 | 48 | 20 | – | –
29 | CS(=O)(=O)c1cccc(N2CCN(Cc3ccc(C(F)(F)F)c(Cl)c3)[C@@H](Cc3ccccc3)C2)c1 [Cpd No 45-1, (S)-2-benzyl-1-(3-chloro-4-(trifluoromethyl)benzyl)-4-(3-(methylsulfonyl)phenyl)piperazine] | 1170 | – | – | – | – | 42 | – | 627
30 | benzyl 4-(3-(methylsulfonyl)phenyl)-2-phenylpiperazine-1-carboxylate [1-14] | – | – | – | – | 192 | – | – | –
